PKM2 act = increases activity of human pyruvate kinase M2; 260,000 tested, 0.34% active; Potency, µM (titrated, usually from 57.5 µM), usual class: activators; purified PKM2, Kinase-Glo ATP luminescence, activation; response scale: 0% is enzyme alone, no compound; P14618; further: nearly all actives have a fitted effect of over 55% in size
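ATP formation by purified human PK-M2, quantified via coupled luciferase luminescence after 1 h at room temperature with 0.1 mM ADP and 0.5 mM PEP final.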
PINK1 modulator = changes PINK1 expression; PINK1 immunofluorescence, high-content cytometry, 24 h; Potency, µM (titrated, usually from 76.6 µM), usual class: activators; 410,000 tested, 0.2% active; AID 624263; active means well fitted activation curve with a large enough effect; inconclusive means small, poorly fitted or top-dose-only effect; cell line not stated here; further: nearly all actives have a fitted effect of over 65% in size
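Stable cell line, 250 cells/well, 12 h attachment; compounds pinned at 5 concentrations, 24 h; CCCP control. Fixed with nuclear dye, primary antibodies 12 h at 10 degrees C, secondary plus cell stain; laser-scanning cytometer read.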
BCR signal inh = inhibitors of chronic active B-cell receptor signaling. ABC-DLBCL IkBa-CBG/CBR reporter, luminescence ratio, 4 h. Potency, µM (series often up to 46.1 µM), actives largely listed as inhibitors. 340,000 tested, 0.05% active. AID 493014; active means well fitted inhibition curve with a large enough effect in the signal ratio, with a control signal flat, not every such curve was filed as active; inconclusive means small, poorly fitted or top-dose-only effect, or effect the other way, or a change in a side signal; the % refers to the signal ratio
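Doxycycline induced both beetle luciferases in TMD8 lymphoma cells; IKK-driven degradation limits the IkappaBalpha-fused green signal, while red luminescence normalises for cell number and nonspecific effects. Compounds tested up to 46 uM, 4 hrs.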
Pin1 inhibitor = inhibitors of human Pin1 | 390,000 tested, 0.009% active | Pin1 FP peptide displacement, HiFluor488, 10 min | Q13526 | Potency, µM (series often up to 115 µM), usual class: inhibitors | AID 504891; active means well fitted inhibition curve with a large enough effect in the polarisation, with a control signal flat, not every such curve was filed as active; inconclusive means small, poorly fitted or top-dose-only effect, or effect the other way, or a change in a side signal; inactive means no such curve, though single readings can be large or run the other way; the % refers to the polarisation
B2AR arrestin = recruits beta-arrestin to the human beta2-adrenergic receptor; P07550; beta-arrestin recruitment to beta2AR, cell-based reporter; Potency, µM (top dose mostly 46.1 µM), hits mostly activators; 330,000 tested, 0.02% active; further: nearly all actives have a fitted effect of over 65% in size
miR-21 reporter = miR-21 reporter, rising signal | HeLa miR-21 FLuc reporter, luciferase, 48 h | Potency, µM (highest dose often 38.3 µM) | 340,000 tested, under 10 active | AID 2288; active = well fitted rising curve with a large enough effect; inconclusive = small, poorly fitted or top-dose-only effect; inactive = no such curve, though single readings can be large or run the other way;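 further: miR-21 action dims this reporter so a rising signal means less miR-21 action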
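HeLa miR-21-FLuc reporter line, endogenous miR-21; 2000 cells/well in DMEM/10% FBS; compound titration up to ~40uM final, 48 h, 37 degree Celsius; luciferase detection reagent, 15 min lysis, CCD luminescence.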
Numbers stand for hits; n = inactive; u = inconclusive; x = not tested or not shown. A selection: hits, their analogues and other compounds. The true share with any hit is near 0.46%. Unless noted, the call rests on the fitted dose curve; in most records, active means well fitted curve in the direction sought with a large enough effect; inconclusive means small, poorly fitted or top-dose-only effect, or another doubt; inactive means no such curve, though single readings can be large; an effect the other way counts as inactive or inconclusive.

SMILES	PKM2 act	PINK1 modulator	BCR signal inh	Pin1 inhibitor	B2AR arrestin	miR-21 reporter
Cc1cccc(OC(C)C(=O)Nc2nonc2-c2ccc(Br)cc2)c1C (configuration not stated)	x	n	x	n	x	n
Cc1ccc(OC(C)C(=O)Nc2nonc2-c2ccc(Br)cc2)cc1C (configuration not stated)	x	22µM	x	n	x	n
CC(C)Cc1nc2cc(NS(=O)(=O)N(C)C)cc(C(=O)N3CCSCC3)c2n1C	x	n	x	x	x	x
COc1cc(OC)c(OC)cc1CN1CCCC(c2nc(C)ncc2-c2ccc(F)cc2)C1 (configuration not stated)	x	n	x	x	x	x
O=C(CCN1C(=O)/C(=C/c2cccs2)SC1=S)Nc1cccc(O)c1	5µM	n	n	n	n	n
Cc1cc(C)c2[nH]c(=O)c(CN(Cc3ccco3)C(=O)c3cccs3)cc2c1	n	x	n	x	n	n
O=C(c1cccs1)N(Cc1ccco1)Cc1cc2ccccc2[nH]c1=O	22µM	n	n	n	n	n
CC(C)c1nc2sc3c(SCC(=O)NCc4ccco4)ncnc3c2c2c1CCC2	35µM	n	n	n	n	n
Cc1c(F)cccc1NS(=O)(=O)c1ccc2c(c1)c(=O)n(C)c(=O)n2C	3.5µM	n	u	n	n	n
COc1cccc(NS(=O)(=O)c2ccc3c(c2)n(C)c(=O)c(=O)n3C)c1	1.1µM	n	n	n	n	n
Cc1c(F)cccc1NS(=O)(=O)c1ccc2c(c1)n(C)c(=O)c(=O)n2C	0.71µM	n	n	n	n	n
O=C(c1cnn(-c2nccc(-c3ccccc3F)n2)c1C1CC1)N1CCCCC1c1cccnc1 (configuration not stated)	x	n	x	x	x	x
O=C1CCc2cc(S(=O)(=O)Nc3cccnc3)ccc2N1	x	x	x	n	x	x
CCOC(=O)N1CCN(Cc2ccc3c(c2)CN(C(=O)c2noc4c2CCCC4)CCO3)CC1	x	n	x	x	x	x
COc1cccc(C2(CC(=O)N3CCN(c4ccccc4O)CC3)CC(=O)N(C3CCCC3)C2=O)c1 (configuration not stated)	x	n	x	x	x	x
CCOc1ccccc1NC(=O)CSc1nc(N)c(C#N)cc1C#N	n	n	n	u	n	n
COc1ccccc1NC(=O)CSc1nc(N)c(C#N)cc1C#N	14µM	n	n	u	n	n
Cc1ccc(NS(=O)(=O)c2c(C)nc3sccn3c2=O)cc1C	4.5µM	n	n	n	n	n
COC(=O)c1ccc(NS(=O)(=O)c2c(C)nc3sccn3c2=O)cc1	x	n	x	n	x	n
CC(C)c1c(C(=O)N(C)Cc2cccc3ncccc23)cnn1-c1nccc(-c2ccccc2F)n1	x	n	x	x	x	x
COc1ccc(OC)c(/C=C/c2ccc3ccccc3n2)c1	x	n	x	x	x	x
COc1ccc(OC)c(/C=C/c2ccc3cccc(O)c3n2)c1	x	x	11µM	x	n	n
CCc1ccc(S(=O)(=O)NCc2nc(N3CCCC3)c3cccc(C)c3n2)cc1	x	n	x	x	x	x
COc1ccc(C(=O)NCC2Cc3c(F)ccc(-c4nc(C)cnc4C)c3O2)cc1F (configuration not stated)	x	n	x	x	x	x
CCc1ccc(S(=O)(=O)c2nnn3c2nc(NCCNC(C)=O)c2ccccc23)cc1	11µM	n	n	n	n	n
SMILES	PKM2 act	PINK1 modulator	BCR signal inh	Pin1 inhibitor	B2AR arrestin	miR-21 reporter
CCCCNc1nc2c(S(=O)(=O)c3ccccc3)nnn2c2ccccc12	n	n	n	n	n	n
Nc1ccccc1N=Cc1ccc(-c2cccc(Cl)c2)o1	28µM	u	u	n	n	n
COC(=O)N/N=C/c1ccc(-c2cccc(Cl)c2)o1	n	n	n	n	n	n
O=C(C1CCN(c2nc(-c3ccc(Br)cc3)cs2)CC1)N1CCOCC1	x	x	x	n	x	x
Cc1nc2c3cc(Cl)ccc3n(CCN3CCCCC3)c2s1	n	4µM	n	n	n	n
CCCOc1ccc(OCCn2nc(C(=O)O)c3ccccc3c2=O)cc1	32µM	n	n	n	n	n
CCn1nnnc1-c1ccc(OC)c(S(=O)(=O)Nc2ccc(C)c(C)c2)c1	16µM	n	n	n	n	n
O=C(NCCC1=CCCCC1)C(=O)NCC(c1ccco1)N1CCN(c2ccccc2)CC1 (configuration not stated)	n	13µM	n	n	n	n
COc1ccc(N2CCN(C(CNC(=O)C(=O)NCCC3=CCCCC3)c3ccco3)CC2)cc1 (configuration not stated)	n	n	n	n	n	n
O=C1CCCCN1CCC(=O)N1CCOc2ccc(C(O)C3CCCCC3)cc2C1 (configuration not stated)	x	n	x	x	x	x
Cc1cc(C)c2c(=O)n(CC(=O)Nc3ccc(Br)c(C)c3)sc2n1	u	n	n	n	n	n
Cc1cc(C)c2c(=O)n(CC(=O)Nc3cccc(Cl)c3C)sc2n1	3.2µM	n	n	n	n	n
O=[N+]([O-])c1cccc(S(=O)(=O)c2ccc(NCCOCCO)c([N+](=O)[O-])c2)c1	x	n	n	n	n	n
O=[N+]([O-])c1cccc(S(=O)(=O)c2ccc(NCCO)c([N+](=O)[O-])c2)c1	16µM	n	u	n	n	n
COc1ccc(C=O)cc1OS(=O)(=O)c1ccc(NC(C)=O)cc1	n	n	18µM	n	n	n
COc1ccc(-c2nc3ccccc3n2Cc2ccccc2)cc1COc1ccc(NC(C)=O)cc1	x	x	x	n	x	x
CO[C@H]1[C@H](NC(=O)c2cccs2)c2ccccc2C12CCN(Cc1cccn1-c1ccccn1)CC2	x	n	x	x	x	x
CCCCCCCCCc1nc2sc3c(c2c(=O)n1NC(=O)c1ccc([N+](=O)[O-])cc1)CC(C)(C)OC3	n	13µM	n	n	n	n
CCC(=O)N[C@@H]1c2ccccc2C2(CCN(Cc3[nH]c4c(Cl)cccc4c3C)CC2)[C@H]1OC	x	n	x	x	x	x
COc1ccc(S(=O)(=O)Nc2ccc(F)c(Cl)c2)cc1OC	16µM	n	n	n	n	n
COc1cccc(C2c3c(ncn(-c4cccc(C)c4)c3=N)Oc3ccc4ccccc4c32)c1 (configuration not stated)	x	x	x	n	x	x
c1ccc(-c2cn(-c3ccccc3)c3[n+]2CCS3)cc1	n	n	n	n	n	n
CC(C)(C)c1ccc(-c2cn(-c3ccc(Br)cc3)c3[n+]2CCCS3)cc1	n	35µM	u	n	n	u
COC(=O)c1ccc(-c2cccc3c2OC(CNC(=O)/C=C/c2ccc(OC)c(OC)c2)C3)nc1 (configuration not stated)	x	n	x	x	x	x
O=c1cc(-c2ccccc2Cl)oc2c(NS(=O)(=O)c3cc(Cl)cc(Cl)c3O)ccc(O)c12	n	u	u	22µM	n	u
N#C/C(=C\c1ccc(C#N)cc1)C(=O)c1ccccc1	22µM	n	u	n	n	n

Screening data (PubChem)
